Drawing on ChEMBL document CHEMBL6087393, “Sensitive quantification of fibroblast activation protein and high-throughput screening for inhibition by FDA-approved compounds” (Eur J Med Chem, 2024), this text covers IC50 and Ki for two compounds.

Assay [1] deals with T1, Prolyl endopeptidase FAP (Homo sapiens, UniProt Q12884).
T1 sequence (Q12884 whole entry): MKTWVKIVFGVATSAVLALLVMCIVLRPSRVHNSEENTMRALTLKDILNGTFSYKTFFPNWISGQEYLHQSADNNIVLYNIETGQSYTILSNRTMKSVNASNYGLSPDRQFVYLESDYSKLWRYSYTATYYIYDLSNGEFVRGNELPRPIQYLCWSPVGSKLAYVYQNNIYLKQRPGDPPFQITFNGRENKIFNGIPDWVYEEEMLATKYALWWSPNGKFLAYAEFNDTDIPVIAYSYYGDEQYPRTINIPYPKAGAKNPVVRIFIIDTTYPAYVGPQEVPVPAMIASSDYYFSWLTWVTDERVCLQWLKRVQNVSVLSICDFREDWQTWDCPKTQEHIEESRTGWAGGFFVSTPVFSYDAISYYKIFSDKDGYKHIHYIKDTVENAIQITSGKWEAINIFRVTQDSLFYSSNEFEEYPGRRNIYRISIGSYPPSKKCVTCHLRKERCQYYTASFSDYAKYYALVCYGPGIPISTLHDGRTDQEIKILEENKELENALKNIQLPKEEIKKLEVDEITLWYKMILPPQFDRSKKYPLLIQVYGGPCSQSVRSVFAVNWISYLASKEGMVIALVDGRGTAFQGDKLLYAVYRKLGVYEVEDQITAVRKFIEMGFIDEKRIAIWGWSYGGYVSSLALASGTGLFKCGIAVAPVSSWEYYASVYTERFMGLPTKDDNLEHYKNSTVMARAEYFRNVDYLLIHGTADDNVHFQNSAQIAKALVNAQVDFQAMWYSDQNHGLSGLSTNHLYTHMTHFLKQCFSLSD
Description: Inhibition of recombinant human FAP extracted from S2 cells using fluorogenic FAP as specific substrate measured after 10 mins incubation by 7-amino-4-methylcoumarin in assay.

Assay [2] addresses T1, Prolyl endopeptidase FAP. In words: biochemical.

By IC50 is commonly meant the point on the concentration scale where inhibition reaches its midpoint. As usually defined, the Ki is the equilibrium dissociation constant of an inhibitor or competing ligand from its target. Higher therefore signals a looser hold on the target.

Regarding `CC(C)(C)C(=O)Oc1ccc(S(=O)(=O)Nc2ccccc2C(=O)NCC(=O)O)cc1`, the IC50 in assay [1] was 1300 nM. The compound also came in with a Ki in assay [2] of 590 nM.
`CC(C)(C)C(=O)Oc1ccc(S(=O)(=O)Nc2ccccc2C(=O)NCC(=O)O)cc1` [SIVELESTAT SODIUM] yielded an inhibition constant Ki in assay [2] of 730 nM.
